Assay results: EP4755888A1 (ILAb Co., Ltd., priority 2023, dated 2025)

Amino acid sequences for entries named in this document (tags omitted). Residues count along the entry.
UniProt Q9NZQ7, 19-238 limits assumed: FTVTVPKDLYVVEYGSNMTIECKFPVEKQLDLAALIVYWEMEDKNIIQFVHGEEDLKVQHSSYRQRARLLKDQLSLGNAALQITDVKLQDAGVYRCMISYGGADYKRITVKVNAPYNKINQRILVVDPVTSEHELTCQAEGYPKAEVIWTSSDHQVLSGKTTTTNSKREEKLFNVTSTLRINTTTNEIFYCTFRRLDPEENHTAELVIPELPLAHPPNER

Target: PD-1/PD-L1 (Homo sapiens, UniProt Q9NZQ7)
Experiment: TR-FRET PD-1/PD-L1 binding inhibition at the molecular level (free proteins)
Details: read-out: FRET assay (IC50), Tag1-PD-L1 and Tag2-PD-1 proteins, twelve concentrations from 200 nM, 2 hours at room temperature, tested form: free base

O=C1C[C@@H](CNC2CCCn3nc(C(=O)Nc4cccc(-c5cccc(NC(=O)c6ccc(CNCCO)cn6)c5Cl)c4Cl)cc32)CN1 (stereo partly shown)
IC50: < 10 nM
